Source: PubChem BioAssay (Tox21)
Several values for one entry are separate records, joined by “and”; a condition that tells them apart may be missing. Equal values may be shown once. This is a selection; strong and weak results do not stand in their true shares. Inconclusive results are not listed. Activity calls are given as the source filed them. Unless noted, calls follow the shape of the dose curve; as a rule, active = well fitted curve in the direction sought with a large enough effect in the repeat runs; inconclusive = weak or mixed curves; inactive = no such curve, though single readings can be large; an effect the other way counts as inactive or inconclusive.

Chains of the proteins cited; added tags and fusions are not shown.
UniProt P16473, whole entry: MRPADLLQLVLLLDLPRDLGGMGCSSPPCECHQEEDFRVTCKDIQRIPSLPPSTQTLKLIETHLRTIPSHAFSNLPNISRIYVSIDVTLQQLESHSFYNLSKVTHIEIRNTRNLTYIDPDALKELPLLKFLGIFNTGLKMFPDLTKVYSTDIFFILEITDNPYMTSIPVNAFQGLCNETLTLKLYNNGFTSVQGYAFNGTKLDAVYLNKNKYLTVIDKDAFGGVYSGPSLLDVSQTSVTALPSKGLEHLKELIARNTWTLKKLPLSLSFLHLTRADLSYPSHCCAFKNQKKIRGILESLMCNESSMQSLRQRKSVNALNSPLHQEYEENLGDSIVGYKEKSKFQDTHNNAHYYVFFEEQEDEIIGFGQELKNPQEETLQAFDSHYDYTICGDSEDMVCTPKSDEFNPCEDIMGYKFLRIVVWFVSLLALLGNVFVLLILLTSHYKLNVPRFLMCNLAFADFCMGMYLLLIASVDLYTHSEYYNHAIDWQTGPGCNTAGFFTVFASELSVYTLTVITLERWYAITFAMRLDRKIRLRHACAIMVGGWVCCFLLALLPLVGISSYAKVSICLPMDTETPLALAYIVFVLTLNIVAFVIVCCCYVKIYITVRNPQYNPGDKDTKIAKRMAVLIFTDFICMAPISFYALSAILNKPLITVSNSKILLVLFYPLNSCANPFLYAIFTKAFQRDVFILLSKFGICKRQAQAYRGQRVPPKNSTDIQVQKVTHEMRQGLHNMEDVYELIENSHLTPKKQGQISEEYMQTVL

What was measured:
[1] = qHTS assay to identify small molecule antagonists of the estrogen related receptor signaling pathway with the pleiotropic PPARgamma coactivator (PGC) from Tox21 10K library (AID 1224841; call rule not given here; also: actives are mostly falling curves and most rising ones were filed inactive; nearly all actives have a fitted effect of over 50% in size); details: PGC/ERR reporter cell line, ONE-Glo luciferase, 18 h; at 92.4 µM (top of the series)
[2] = qHTS assay to identify small molecule agonists of the estrogen related receptor signaling pathway with the pleiotropic PPARgamma coactivator (PGC) from Tox21 10K library (AID 1224842); details: PGC/ERR reporter cell line, luciferase ONE-Glo, 18 h; at 92.4 µM (top of the series); also: nearly all actives have a fitted effect of over 15% in size
Procedure, shortened: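 PGC/ERR reporter cells (NTP line) were seeded 2,000 per well, rested 6 h at 37 C/5% CO2, then pin-dosed with compounds in DMSO for 18 h at 37 C; luciferase read by One-Glo luminescence after 30 min at room temperature.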

[3] = biological target: Thyrotropin receptor (Homo sapiens) (UniProt P16473); experiment: qHTS assay to identify small molecule agonists of the thyroid stimulating hormone receptor (TSHR) signaling pathway (AID 1224843; calls by dose curve; also: nearly all actives have a fitted effect of over 45% in size); details: TSHR-HEK293 cells, cAMP HTRF, agonist mode, 30 min
[4] = qHTS assay to identify small molecule agonists of the hypoxia (HIF-1) signaling pathway - cell viability counter screen (AID 1224844; calls by dose curve; also: nearly all actives have a fitted effect of over 50% in size); details: HRE-bla ME-180 viability, CellTiter-Glo luminescence, 17 h; at 76.8 µM (top of the series)
Procedure, shortened: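 Cytotoxicity measured by CellTiter-Glo ATP luminescence in the wells also read for beta-lactamase signal. Cells were HRE-bla ME-180 (2,000/well, 0.5% dialyzed FBS), exposed to compounds for 17 h at 37C.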

[5] = qHTS assay to identify small molecule agonists of H2AX (AID 1224845; active = well fitted activation curve with a large enough effect in the signal ratio in the repeat runs, not every such curve was filed as active; the % refers to the signal ratio; also: potency is read from the fitted curve at half-maximal effect)
Procedure, shortened: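 Wild-type CHO-K1 cells plated overnight, then exposed 3 hr at 37C to compounds at 15 concentrations (0.76% DMSO). Lysed, then HTRF anti-pH2AX(S139)-cryptate/anti-H2AX-d2 detection after 24 hr at room temperature; emissions 665 and 620 nm.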

[6] = qHTS assay to identify small molecule agonists of the hypoxia (HIF-1) signaling pathway (AID 1224846; active = well fitted activation curve with a large enough effect in the signal ratio in the repeat runs, not every such curve was filed as active; the % refers to the signal ratio); details: HRE-bla ME-180 cells, beta-lactamase ratio, 17 h; at 76.8 µM (top of the series)
Procedure, shortened: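 Compounds added to ME-180 cells carrying hypoxia-response-element beta-lactamase reporter (0.5% dialyzed FBS, 5 h preplating), 17 h at 37C; agonist activity detected by CCF4-AM B/G FRET read-out.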

[7] = qHTS assay to identify small molecule agonists of H2AX - cell viability counter screen (AID 1224847; calls by dose curve; also: top concentration of the series differs between compounds; nearly all actives have a fitted effect of over 30% in size); details: CHO-K1 viability, CellTiter-Glo luminescence, 3 h; at 154 µM (top of the series)
Procedure, shortened: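 We seed wild-type CHO-K1 cells overnight, treat them for 3 hr at 37C with compounds in 15-concentration series, and quantify remaining viability by CellTiter-Glo luminescence.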

[8] = qHTS assay to identify small molecule antagonists of the estrogen related receptor (ERR) signaling pathway from Tox21 library (AID 1224848); details: ERR reporter cell line, luciferase antagonist mode, 18 h; at 92.4 µM (top of the series); also: nearly all actives have a fitted effect of over 50% in size
Procedure, shortened: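 Tox21 10K compounds in DMSO tested for ERR pathway antagonism in NTP's ERR cell line; 18 h, 37 C exposure; ONE-Glo luminescence.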

[9] = qHTS assay to identify small molecule agonists of the estrogen related receptor (ERR) signaling pathway from Tox21 library (AID 1224849; calls by dose curve; also: nearly all actives have a fitted effect of over 15% in size); details: ERR reporter cell line, ONE-Glo luciferase, 18 h
Procedure, shortened: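 Luminescent agonist read-out (One-Glo, 30-minute room-temperature incubation) following 18-hour compound treatment at 37 C of the ERR cell line, which had been plated 6 hours before dosing.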

[10] = qHTS RealTime-Glo MT Cell Viability Assay in HepG2 cells - 24 hour (AID 1224867); details: RealTime-Glo luminescence; at 76.8 µM (top of the series); also: nearly all actives have a fitted effect of over 50% in size
Procedure, shortened: (§1)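 Viability was tracked continuously by NanoLuc luminescence from prosubstrate reduced by living HepG2 cells, at successive time points over 40 h of compound exposure. Cells with reagent were preincubated 5 h at 37 °C before compound addition.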

[11] = qHTS RealTime-Glo MT Cell Viability Assay in HEK293 cells - 32 hour (AID 1224868); also: nearly all actives have a fitted effect of over 50% in size; also: potency is read from the fitted curve at half-maximal effect; as to activity change, negative = cytotoxic: top concentration of the series differs between compounds
Procedure, shortened: (§2)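 Viability tracked continuously by luminescence as live cells reduce a prosubstrate for NanoLuc; HEK293 cells preincubated 5 h, compound-treated at 37 C, and read at 0, 8, 16, 24, 32 and 40 h.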

[12] = A CellTox Green Cytotoxicity Assay to monitor cytotoxicity in HEK293 cells - 0 hour (AID 1224869); details: CellTox Green fluorescence; also: nearly all actives have a fitted effect of over 50% in size
Procedure, shortened: (§3)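 Fluorescence from a DNA-binding dye excluded by viable cells was measured repeatedly in the same HEK293 wells (600 cells/well) during continuous compound exposure at 37 C. Each assay gives one read point: 0, 8, 16, 24, 32 or 40 h.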

[13] = qHTS RealTime-Glo MT Cell Viability Assay in HepG2 cells - 40 hour (AID 1224870); details: RealTime-Glo luminescence; at 76.8 µM (top of the series); also: nearly all actives have a fitted effect of over 50% in size
Procedure, shortened: (§4)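 HepG2 cells mixed with RealTime-Glo MT reagents (NanoLuc plus cell-permeant prosubstrate) were seeded at 600 cells/well, incubated 5 h at 37 C/5% CO2, then pinned with compounds in DMSO; nonlytic luminescence tracked viability during 40 h treatment.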

[14] = A CellTox Green Cytotoxicity Assay to monitor cytotoxicity in HEK293 cells - 40 hour (AID 1224871); details: CellTox Green fluorescence; at 76.8 µM (top of the series); also: nearly all actives have a fitted effect of over 45% in size
Procedure, shortened: as §3

[15] = qHTS RealTime-Glo MT Cell Viability Assay in HEK293 cells - 16 hour (AID 1224872); also: nearly all actives have a fitted effect of over 50% in size; also: potency is read from the fitted curve at half-maximal effect; as to activity change, negative = cytotoxicity: top concentration of the series differs between compounds
Procedure, shortened: as §2

[16] = qHTS RealTime-Glo MT Cell Viability Assay in HepG2 cells - 8 hour (AID 1224873); details: RealTime-Glo luminescence; also: nearly all actives have a fitted effect of over 55% in size
Procedure, shortened: as §4

[17] = qHTS RealTime-Glo MT Cell Viability Assay in HEK293 cells - 40 hour (AID 1224874); details: RealTime-Glo luminescence; max response: stronger effect = lower value; also: nearly all actives have a fitted effect of over 50% in size; also: potency is read from the fitted curve at half-maximal effect
Procedure, shortened: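 Luminescence, which tracks viable cell number through reduction of the prosubstrate to a NanoLuc substrate, was read over continuous 37 C culture. Cells (600/well) were premixed with reagent and rested 5 h before 23 nL of compound in DMSO was pinned.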

[18] = A CellTox Green Cytotoxicity Assay to monitor cytotoxicity in HEK293 cells - 24 hour (AID 1224875); details: CellTox Green fluorescence, stronger effect = higher value; also: nearly all actives have a fitted effect of over 45% in size
Procedure, shortened: as §3

[19] = A CellTox Green Cytotoxicity Assay to monitor cytotoxicity in HepG2 cells - 16 hour (AID 1224876); details: CellTox Green fluorescence; at 76.8 µM (top of the series); also: nearly all actives have a fitted effect of over 45% in size
Procedure, shortened: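 Real-time cytotoxicity: fluorescence of a cell-impermeant cyanine dye binding DNA of dead HepG2 cells, measured repeatedly (0–40 h) during compound exposure at 37 C. Cells seeded 600/well with reagent, dosed after 5 h.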

[20] = qHTS RealTime-Glo MT Cell Viability Assay in HepG2 cells - 32 hour (AID 1224877); details: RealTime-Glo luminescence; at 76.8 µM (top of the series); also: nearly all actives have a fitted effect of over 55% in size
Procedure, shortened: as §1
% is scaled to controls: 0 for no effect and ±100 for the full control effect.

## O=[N+]([O-])C(Cl)(Cl)Cl
[1]
  activity, negative = inhibition: inactive: -8.56%
[2]
  activation: inactive: -0.565%
[3]; at 92.4 µM (top of the series)
  activation: inactive: 0.77%
[4]
  activity change, negative = cytotoxicity: inactive: 0.221%
[5]
  Potency: inactive
[6]
  activation: inactive: 0.64%
[7]
  activity change, negative = cytotoxicity: inactive: 2.27%
[8]
  activity, negative = inhibition: inactive: 14.5%
[9]; at 92.4 µM (top of the series)
  activity change, positive = activation: inactive: 9.5%
[10]
  activity change, negative = cytotoxicity: inactive: 1.36%
[11]
  Potency: inactive
[12]; at 76.8 µM (top of the series)
  cytotoxicity: inactive: 4.67%
[13]
  activity change, negative = cytotoxic: inactive: 2.29%
[14]
  cytotoxicity increase: inactive: 12.8%
[15]
  Potency: inactive
[16]; at 76.8 µM (top of the series)
  viability change, negative = cytotoxic: inactive: 2.13%
[17]
  max response: inactive: 1.56%
[18]; at 76.8 µM (top of the series)
  activity change: inactive: 16.7%
[19]
  cytotoxicity increase: inactive: -16%
[20]
  activity change, negative = cytotoxic: inactive: -0.186%

## CCC(=O)N(c1ccccc1)C1(COC)CCN(CCn2nnn(CC)c2=O)CC1
[1]
  activity, negative = inhibition: inactive: 5.1%
[2]
  activation: inactive: 1.05%
[3]; at 92.4 µM (top of the series)
  activation: inactive: 1.66%
[4]
  activity change, negative = cytotoxicity: inactive: -13.5%
[5]
  Potency: inactive
[6]
  activation: inactive: 0.608%
[7]
  activity change, negative = cytotoxicity: inactive: -1.18%
[8]
  activity, negative = inhibition: inactive: -1.05%
[9]; at 92.4 µM (top of the series)
  activity change, positive = activation: inactive: -1.56%
[10]
  activity change, negative = cytotoxicity: inactive: 2.72%
[11]
  Potency: inactive
[12]; at 76.8 µM (top of the series)
  cytotoxicity: inactive: 2.27%
[13]
  activity change, negative = cytotoxic: inactive: -2.3%
[14]
  cytotoxicity increase: inactive: -11%
[15]
  Potency: inactive
[16]; at 76.8 µM (top of the series)
  viability change, negative = cytotoxic: inactive: 6.78%
[17]
  max response: inactive: -15%
[18]; at 76.8 µM (top of the series)
  activity change: inactive: -3.84%
[19]
  cytotoxicity increase: inactive: 2.15%
[20]
  activity change, negative = cytotoxic: inactive: 0.153%

## CCC(=O)N(c1ccccc1)C1(COC)CCN(CCc2cccs2)CC1
[2]
  activation: inactive: -14.7%
[3]; at 92.4 µM (top of the series)
  activation: inactive: -0.751%
[4]
  activity change, negative = cytotoxicity: inactive: -2.43%
[5]
  Potency: inactive
[6]
  activation: inactive: 1.33%
[7]
  activity change, negative = cytotoxicity: inactive: -2.97%
[9]; at 92.4 µM (top of the series)
  activity change, positive = activation: inactive: -35.7%
[10]
  activity change, negative = cytotoxicity: inactive: -8.39%
[11]
  Potency: active: 27.5 µM
[12]; at 76.8 µM (top of the series)
  cytotoxicity: inactive: 2.25%
[13]
  activity change, negative = cytotoxic: inactive: -9.08%
[15]
  Potency: active: 43.6 µM
[16]; at 76.8 µM (top of the series)
  viability change, negative = cytotoxic: inactive: -0.938%
[17]
  Potency: active: 27.5 µM
[18]; at 76.8 µM (top of the series)
  activity change: inactive: 0.564%
[19]
  cytotoxicity increase: inactive: -0.175%
[20]
  activity change, negative = cytotoxic: inactive: -11.7%

## CN(CCCl)CCCl
[3]; at 42.5 µM (top of the series)
  activation: inactive: -8.71%
[3]; at 92.4 µM (top of the series)
  activation: inactive: -0.72%
[5]
  Potency: active: 31.8 µM and active: 22 µM
[7]
  activity change, negative = cytotoxicity: inactive: 9.95%
[9]; at 42.5 µM (top of the series)
  activity change, positive = activation: inactive: -30.9%
[9]; at 92.4 µM (top of the series)
  activity change, positive = activation: inactive: -78.7%
[12]; at 35.3 µM (top of the series)
  cytotoxicity: inactive: -1.8%
[12]; at 76.8 µM (top of the series)
  cytotoxicity: inactive: -2.92%
[13]
  activity change, negative = cytotoxic: inactive: -25.3%
[16]; at 35.3 µM (top of the series)
  viability change, negative = cytotoxic: inactive: -3.58%
[16]; at 76.8 µM (top of the series)
  viability change, negative = cytotoxic: inactive: -12.6%
[18]; at 35.3 µM (top of the series)
  activity change: inactive: 1.24%
[18]; at 76.8 µM (top of the series)
  activity change: inactive: 0.317%
